Experiments:
Assay type in all cases: in vivo, Long Evans rat
[1] = ic-STZ rat pup model: blood glucose, body and brain weight, pancreas and brain histopathology; details: preliminary studies
[2] = test system: GFAP, GSK-3β, phospho-GSK-3β, ubiquitin, tau, phospho-tau, β-actin; assay: ic-STZ model: Western blot analysis of temporal lobe tissue; details: 40 mg/kg ic-STZ, Mean±S.E.M.
[3] = test system: temporal lobe gene expression; assay: ic-STZ model: real time quantitative RT-PCR of brain mRNA
brain gene expression = assay: ic-STZ ± PPAR agonist: real time quantitative RT-PCR of temporal lobe, hypothalamus, cerebellum; details: cerebellar cortex
[4] = test system: ic-STZ-induced neurodegeneration; assay: ic-STZ ± PPAR agonist: brain histopathology (H&E); details: 4 weeks after ic-STZ ± single IP PPAR agonist
[5] = test system: phospho-GSK-3β, GSK-3β, phospho-Tau, Tau; assay: ic-STZ ± PPAR agonist: Western blot analysis of GSK-3β and Tau; details: hypothalamus
learning and memory = assay: Morris Water Maze learning and memory test; details: Trial Day 4 / final day of testing
[6] = test system: PPAR-α, PPAR-δ, PPAR-γ mRNA; assay: PPAR gene expression levels in the brain (real time quantitative RT-PCR); details: ic-STZ treated brain, mean ±S.E.M.
[7] = test system: GFAP, HNE, 8-OHdG, ChAT immunoreactivity; assay: ic-STZ ± PPAR agonist: immunohistochemical staining of brain; details: temporal cortex
[8] = temporal lobe, day 14, normalized to 18S

SMILES: CN(N=O)C(=O)NC1C(O)OC(CO)C(O)C1O (stereo not drawn) [STZ]
- STZ-mediated neurodegeneration in dose finding ([1]; doses from 5 to 70 mg/kg ic): neurodegeneration at all doses tested
- dose giving consistent neurodegeneration results ([1]; ic): at least 25 mg/kg
- p-GSK-3β/GSK-3β ratio [2]: 0.0204 ± 0.0022
- APP mRNA ([3]; day 14): significantly higher
- IRS-1 mRNA ([3]; day 14): significantly reduced relative to control
- tau mRNA ([3]; day 14): significantly higher
- IGF-I mRNA ([3]; temporal cortex, day 14): similarly abundant
- IGF-I receptor mRNA ([3]; temporal cortex, day 14): significantly reduced
- IGF-II mRNA ([3]; temporal cortex, day 14): significantly reduced
- insulin mRNA ([3]; temporal cortex, day 14): significantly reduced
- insulin receptor mRNA ([3]; temporal cortex, day 14): significantly reduced
- AChE mRNA ([3]; temporal lobe): increased
- ChAT mRNA ([3]; temporal lobe): significantly reduced
- AIF-1 (microglia) gene expression [3, 8]: increased
- GFAP (astrocytes) gene expression [3, 8]: increased
- Hu (neurons) gene expression [3, 8]: significantly reduced
- MAG-1 (oligodendroglia) gene expression [3, 8]: significantly reduced
- APP mRNA relative to control (brain gene expression): increased
- Tau mRNA relative to control (brain gene expression): significantly reduced
- preservation of cerebellar cortical architecture (H&E) [4]: atrophy with cystic degeneration of the cerebellar cortex
- preservation of hippocampi and temporal lobes (H&E) [4]: degeneration of the hippocampal formation
- pTau/Tau ratio relative to control [5]: significantly higher
- phospho-Tau level relative to control [5]: significantly higher
- mean latency period to arrive at the hidden platform relative to control (learning and memory): significantly higher
- PPAR-α mRNA/18S ratio [6]: 0.036 ± 0.0021 ×10^−3
- PPAR-γ mRNA/18S ratio [6]: 0.182 ± 0.017 ×10^−3
- PPAR-δ mRNA/18S ratio [6]: 0.258 ± 0.034 ×10^−3
- 8-OHdG immunoreactivity [7]: Increased
- GFAP immunoreactivity [7]: Increased
- HNE immunoreactivity [7]: Increased

Reference: patent publication US7833513B2, “Treatment of Alzheimer's Disease” (Rhode Island Hospital, priority 2004, dated 2010)
